From patent publication US10526291B2, “Potent dual BRD4-kinase inhibitors as cancer therapeutics” (H. Lee Moffitt Cancer Center and Research Institute, Inc., priority 2014, dated 2020) come the findings set out here.

The test system of the test is MM.1S cells. The test can be described thus: MM.1S cell survival, MTT assay. The test is classed as cell-based. As to conditions: Homo sapiens, MM1.S, 72 h, 72 hours compound exposure.

Compound `Cc1cnc(Nc2ccc(N3CCN(C)CC3)cc2)nc1Nc1cccc(S(=O)(=O)NC(C)(C)C)c1` [drawing 27] returned an IC50 of 1.58 nM.
